{
  "source": "patent US20130122099A1",
  "about": "“POLYETHYLENE GLYCOL-COATED SODIUM CARBONATE AS A PHARMACEUTICAL EXCIPIENT AND COMPOSITIONS PRODUCED FROM THE SAME” (priority 2008, published 2013)",
  "origin": "cited, not measured here",
  "data": [
    {"compound": "Cc1nc2n(c(=O)c1CCN1CCC(c3noc4cc(F)ccc34)CC1)CCCC2", "note": "[risperidone]", "values": [
      {"measurement": "pKa", "value": 7.9}
    ]}
  ]
}
